Reference: PMC11550293, “Biochemical characterization of a recombinant laccase from Halalkalibacterium halodurans C-125 and its application in the biotransformation of organic compounds” (Biotechnology Letters, 2024)

Sequences of proteins named here, by UniProt entry; tags and fusion partners are left off. Residues count along the entry.
UniProt Q9KB49, 24-500: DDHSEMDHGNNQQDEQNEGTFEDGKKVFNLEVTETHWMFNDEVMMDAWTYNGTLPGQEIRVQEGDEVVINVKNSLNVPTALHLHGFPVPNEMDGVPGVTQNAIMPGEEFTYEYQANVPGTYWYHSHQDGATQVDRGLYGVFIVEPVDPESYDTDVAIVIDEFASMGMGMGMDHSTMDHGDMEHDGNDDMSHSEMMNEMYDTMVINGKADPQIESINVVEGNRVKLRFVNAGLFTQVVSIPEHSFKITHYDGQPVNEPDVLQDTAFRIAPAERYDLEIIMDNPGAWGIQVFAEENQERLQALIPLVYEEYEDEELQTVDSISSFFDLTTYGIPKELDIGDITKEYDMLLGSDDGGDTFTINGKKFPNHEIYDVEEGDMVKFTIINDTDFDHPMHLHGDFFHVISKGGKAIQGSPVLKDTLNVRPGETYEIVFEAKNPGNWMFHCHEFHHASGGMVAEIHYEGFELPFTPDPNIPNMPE

Molecular target: rLac-HhC125 (Halalkalibacterium halodurans, UniProt Q9KB49)
Assay: residual SGZ oxidation at […] nm
Assay type: biochemical
Conditions: 1000 µM; 1 mM inhibitor, 0 min exposure; SGZ substrate 0.025 mM, 100 mM Tris-HCl pH 8, 2 mM CuSO4

In the case of [N-]=[N+]=N, the “Residual activity (%) ± SD (0 min)” value is reported as 64.2 ± 3%.
